Read-outs that look alike come from different tables or passages of the source.

The text below walks through data of US12473298B2, “Amide compounds, preparation method therefor, and use thereof in the medical field” (Shanghai Synergy Pharmaceutical Sciences Co., Ltd., priority 2019, dated 2025).

In test [1] the test system is human diffuse large B-cell lymphoma cells (Karpas 422 cell). The test can be described thus: Karpas 422 cell proliferation, Calcein AM staining. Conditions: data of 14th day, read-out: Karpas422 Proliferation IC50 Nanomoles per Liter. The test is classed as cell-based.
Test [2] relates to human diffuse large B-cell lymphoma cells (WSU-DLCL2 cell). Kind of test: Pharmacodynamic experiment in combination with other drugs, WSU-DLCL2 transplanted tumor model in mice. It counts as in vivo, mice (CB17/SCID).
Test [3] shares this test system. Kind of test: Pharmacodynamic experiment, WSU-DLCL2 transplanted tumor model in mice. It counts as in vivo, mice (CB17/SCID).
Where [4] appears, read: 50 mg/kg, intraperitoneally, once a day for 21 days.

Take `CCN(c1cc(-c2ccc3c(c2)NC(=O)C32CCN(CC3CC3)CC2)cc(C(=O)NCc2c(C)cc(C)[nH]c2=O)c1C)C1CCOCC1` [Example 69, 5-(1′-(cyclopropylmethyl)-2-oxospiro[dihydroindole-3,4′-piperidine]-6-yl)-N-((4,6-dimethyl-2-oxo-1,2-dihydropyridin-3-yl)methyl)-3-(ethyl(tetrahydro-2H-pyran-4-yl)amino)-2-methylbenzamide]: the IC50 in test [1] (Homo sapiens, KARPAS-422) was 1.36 nM.
Same read-out and setting: next, `CCN(c1cc(-c2ccc3c(c2)C=CC32CCN(CC(F)(F)F)CC2)cc(C(=O)NCc2c(OC)cc(C)[nH]c2=O)c1C)C1CCOCC1` [Example 35, 3-(ethyl(tetrahydro-2H-pyran-4-yl)amino)-N-((4-methoxy-6-methyl-2-oxo-1,2-dihydropyridin-3-yl)methyl)-2-methyl-5-(1′-(2,2,2-trifluoroethyl)spiro[indene-1,4′-piperidine]-5-yl)benzamide]: 3.5 nM.
As to `CCN(c1cc(-c2ccc3c(c2)CCC32CCN(CC(F)(F)F)CC2)cc(C(=O)NCc2c(OC)cc(C)[nH]c2=O)c1C)C1CCOCC1` [Example 36], the IC50 in test [1] is 4.39 nM.
Turning to `CCN(c1cc(-c2ccc3c(c2)N(C(C)C)C(=O)C32CCOCC2)c(Cl)c(C(=O)NCc2c(OC)cc(C)[nH]c2=O)c1C)C1CCOCC1` [Example 52, 2-chloro-5-(ethyl(tetrahydro-2H-pyran-4-yl)amino)-3-(1-isopropyl-2-oxo-2′,3′,5′,6′-tetrahydrospiro[dihydroindole-3-1,4′-pyran]-6-yl)-N-((4-methoxy-6-methyl-2-oxo-1,2-dihydropyridin-3-yl)methyl)-6-methylbenzamide], the IC50 in test [1] (Homo sapiens, KARPAS-422) is 2.1 nM.
On to `CCN(c1cc(-c2ccc3c(c2)CCC32CCN(CC(F)(F)C(F)(F)F)CC2)cc(C(=O)NCc2c(OC)cc(C)[nH]c2=O)c1C)C1CCOCC1` [Example 42], for which, in test [1], the IC50 is 2.6 nM.
For the compound `CCN(c1cc(-c2ccc3c(c2)N(C(C)=O)CC32CCOCC2)cc(C(=O)NCc2c(C)cc(C)[nH]c2=O)c1C)C1CCOCC1` [Example 74, 5-(1-acetyl-2′,3′,5′,6′-tetrahydrospiro[dihydroindole-3,4′-pyran]-6-yl)-N-((4,6-dimethyl-2-oxo-1,2-dihydropyridin-3-yl)methyl)-3-(ethyl(tetrahydro-2H-pyran-4-yl)amino)-2-methylbenzamide], the IC50 in test [1] (Homo sapiens, KARPAS-422) was 3.1 nM.
Still for that read-out and setting: next, `CCN(c1cc(-c2ccc3c(c2)NC(=O)C32CCOCC2)cc(C(=O)NCc2c(OC)cc(C)[nH]c2=O)c1C)C1CCN(C)CC1` [Example 1, 3-(ethyl(1-methylpiperidin-4-yl)amino)-N-((4-methoxy-6-methyl-2-oxo-1,2-dihydropyridin-3-yl)methyl)-2-methyl-5-(2-oxo-2′,3′,5′,6′-tetrahydrospiro[dihydroindole-3,4′-pyran]-6-yl)benzamide]: 4.26 nM.
On to `CC[C@H](C)n1cc(C)c2c(C(=O)NCc3c(C)cc(C)[nH]c3=O)cc(-c3ccc(N4CCNCC4)nc3)cc21` [GSK126, reference compound], for which, in test [1], the IC50 was 51.4 nM. Further, the inhibited tumor growth in test [2] (setting [4]) is given as 58%; in test [3] (setting [4]), 61%.
Turning to `CCN(c1cc(-c2ccc3c(c2)N(C)CC32CCOCC2)cc(C(=O)NCc2c(C)cc(C)[nH]c2=O)c1C)C1CCOCC1` [Example 72, N-((4,6-dimethyl-2-oxo-1,2-dihydropyridin-3-yl)methyl)-3-(ethyl(tetrahydro-2H-pyran-4-yl)amino)-2-methyl-5-(1-methyl-2′,3′,5′,6′-tetrahydrospiro[dihydroindole-3,4′-pyran]-6-yl)benzamide], in test [2] (125 mg/kg intragastrically twice a day for 21 days, combined with four positive control drugs (CHOP)), the “inhibitory effect on tumor growth” value is on record as “exceeded 98%”. For the same compound, in test [2] (125 mg/kg, combined with four positive control drugs (CHOP)), the tumor disappearance result is listed as “tumors in several mouse disappeared”. The inhibited tumor growth in test [2] (125 mg/kg, intragastrically, twice a day for 21 days) is given as 83%. Also, the inhibition in vivo at 150 mg/kg in test [3] (Mus musculus, WSUDLCL2, po, 504 h, read-out: inhibited tumor growth) came out at 85%.
